Legend:
PECAM-1 = PECAM-1 protein expression by Western immunoblot in HUVECs; conditions: CC 5.0 μM; GÖ 6850 and 6976 50 nM; BPB 10 μM; MAFP 3.0 μM; compared with vehicle (DMSO)
HUVECs = assay: In vitro angiogenesis/tube formation assay in HUVECs; conditions: CC 5.0 μM; GÖ 6850 and 6976 50 nM; BPB 10 μM; MAFP 3.0 μM; compared with vehicle (DMSO)

Substance: methyl-arachidonyl fluorophosphonate
- VEGF/LacCer induced PECAM-1 expression (PECAM-1): abrogated
- VEGF/LacCer induced tube formation (HUVECs): abrogated

From US20090202439A1, “Methods for treatment of angiogenesis” (The Johns Hopkins University, priority 2004, published 2009)
